Data on 1 compound can be found in PubChem BioAssay AID651996 (Sanford-Burnham Center for Chemical Genomics, 2013).

The assay has as its system C. elegans VP596 Pgst-4::GFP/RFP ratio, acrylamide-induced, 24 h. Kind of assay: structure-activity of worm SKN-1 blockers – whole organism, GFP/RFP fluorescence ratio, strain VP596, SAR follow-up (AID 651996).

On to `Cc1ccc2nc(-c3ccc(NC(=S)NC4CC(C)(C)NC(C)(C)C4)cc3)sc2c1`, for which the IC50 was 16.8 µM.
